# This is a selection; strong and weak results do not stand in their true shares. Calls of active or inactive are those of the source.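 Rule for the calls: active = inhibition above the mean of the plate negative controls plus 5 SD (cut at about 13% in these data); inactive = the rest.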
# Test: blockers of IgG-bead uptake by macrophages – imaging, J774A.1 cells, IgG beads, primary screen (AID 1029);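 note: phagocytic index as fraction of beads internalized from green versus red external bead signal; plate controls were DMSO negative control for no effect and cytochalasin-D positive control for full effect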
# Conditions: J774A.1 macrophage IgG-bead phagocytosis, at 5 µM, active compounds read high
row,Compound,inhibition
1,O=[N+]([O-])c1cc([N+](=O)[O-])c(-c2ccn[nH]2)s1,inactive: -3.68%
2,CCN(CC)C(=S)SC(NC=O)C(Cl)(Cl)Cl (stereo unspecified),inactive: 1.1%
3,Cc1ccc2nc3c(c(C)c2c1)CC(C(Cl)Cl)S3 (stereo unspecified),inactive: -6.11%
4,O=C(OC1CN2CCC1CC2)C12CC3CC(CC(C3)C1)C2 (stereo unspecified),inactive: 1.1%
5,Cc1c2c(nc3ccccc13)SC(C(Cl)Cl)C2 (stereo unspecified),inactive: -16.8%
6,COP1(=S)c2c(C)nn(CCC#N)c2N=C(c2ccc(F)cc2)N1C (stereo unspecified),inactive: 0.9%
7,O=C(COc1ccccc1)OC1CN2CCC1CC2 (stereo unspecified),inactive: -0.9%
8,Cc1cc(SC(NC(=O)c2ccccc2)C(Cl)(Cl)Cl)nc(C(C)C)n1 (stereo unspecified),inactive: -10.9%
9,O=P1(Nc2ncccn2)COc2ccccc2OC1,inactive: 2.4%
10,Cc1ccc(OCC(=O)OC2CN3CCC2CC3)cc1 (stereo unspecified),inactive: -0.3%
11,O=P1(Nc2ccc(Br)cn2)COc2ccccc2OC1,inactive: -1.8%
12,Cc1nn(-c2ccccc2)c2c1P(=O)(N1CCOCC1)N(C)C(c1ccccc1)=N2 (stereo unspecified),inactive: 2.1%
13,O=P1(Nc2ccccn2)COc2ccccc2OC1,inactive: -1.2%
14,Clc1n[nH]nc1-c1nn[nH][15n]1,inactive: -1.1%
15,CCOP(=O)(Nc1cccc2ccccc12)OCC,inactive: -0.19%
16,COc1cc(C2NCCC3(OCCO3)C2(C)C)cc(OC)c1OC (stereo unspecified),inactive: -3.74%
17,Cc1cccc(OCC(=O)OC2CN3CCC2CC3)c1 (stereo unspecified),inactive: -1.9%
18,O=[N+]([O-])c1ccc2c(c1)nnn2O,inactive: -1.1%

row,Compound,inhibition
1,CCOP1(=S)c2c(C)nn(CCC#N)c2N=C(c2ccc(F)cc2)N1C (stereo unspecified),inactive: -0.5%
2,O=P(Nc1nccs1)(c1ccccc1)c1nc2ccccc2s1 (stereo unspecified),inactive: 0.3%
3,CCOP1(=S)c2c(C)nn(CCC#N)c2N=C(c2ccccc2F)N1C (stereo unspecified),inactive: 0.9%
4,CC(=O)NC(SC(=S)N(CC(C)C)CC(C)C)C(Cl)(Cl)Cl (stereo unspecified),inactive: -2.32%
5,O=P1(Nc2nc3ccc(Cl)cc3s2)COc2ccccc2O1 (stereo unspecified),inactive: -1.4%
6,O=P(Nc1nccs1)(c1ccccc1)c1ccccc1,inactive: -0.7%
7,c1nnnn1CCn1cnnn1,inactive: -3.3%
8,CC(=O)NC(SC(=S)N(C)C)C(Cl)(Cl)Cl (stereo unspecified),inactive: -2.52%
9,C(Cc1nn[nH]n1)Cc1nn[nH]n1,inactive: 1.72%
10,O=C(OC1CN2CCC1CC2)c1cccc(Cl)c1 (stereo unspecified),inactive: -0.8%
11,CN(C)C(=O)OCCc1n(C)cc[n+]1C,inactive: -6.34%
12,CCc1nc2c(n1)c1c(non1O)c1c2no[n+]1[O-],inactive: -4.2%
13,O=C(NC(Sc1ccncn1)C(Cl)(Cl)Cl)c1ccccc1 (stereo unspecified),inactive: -6.14%
14,Cc1c2non([O-])c-2c(C)[n+](=O)[n+]1[O-],inactive: -1%
15,Oc1ccccc1CNc1ccccn1,inactive: -1.7%
16,CCN(N=Nc1nonc1N)c1nonc1N,inactive: -5.29%
17,Cc1cc(SC(NC(=O)c2ccc(F)cc2)C(Cl)(Cl)Cl)ncn1 (stereo unspecified),inactive: -10.1%
18,CCOP(=O)(Nc1ccccc1)OCC,inactive: -0.7%
